Measured values taken from publication PMC8236918.

Target: MBP-tagged full-length CYRI-A (mouse) (UniProt Q8BHZ0)
Assay: SPR; MBP-tagged CYRI immobilised on Sensor chip CM5; purified untagged RAC1 Q61L titrated at different concentrations; steady-state responses fitted to a 1:1 binding model

- Kd: 13 µM
Substance: untagged full-length RAC1 Q61L (from UniProt P63000 1-192) (natural protein; other documents disagree on this pair)
